Our source for the IC50 values is ChEMBL document CHEMBL3259600, “Synthesis and biological evaluation of some new pyrazoline substituted benzenesulfonylurea/thiourea derivatives as anti-hyperglycaemic agents and aldose reductase inhibitors” (Eur J Med Chem, 2014).

The assay has as its target Aldo-keto reductase family 1 member B1 (Rattus norvegicus, UniProt P07943). In words: Inhibition of aldose reductase in rat lens by spectrophotometer analysis. In outline:
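Crude enzyme from rat lens homogenized in 9 volumes 100 mM potassium phosphate pH 6.2, spun 15,000 × g for 30 min at 4 °C, supernatant used. Assay in 50 mM potassium phosphate pH 6.2 with 0.4 M lithium sulphate, 5 mM β-mercaptoethanol, 10 mM DL-glyceraldehyde, 0.1 mM NADPH, at 37 °C. DMSO-dissolved compound preincubated 5 min, reaction started with NADPH, read spectrophotometrically, triplicate. IC50 by non-linear regression of % inhibition vs log concentration.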

`O=C1NC(=O)[C@@]2(CCOc3ccc(F)cc32)N1` [SORBINIL] returned an IC50 of 8 µM.

For orientation: IC50 means the concentration that gives 50% inhibition. Lower therefore signals greater potency.
